Measured values as given in US20100267743A1, “3-(PHENOXYPYRROLIDIN-3-YL-METHYL)HETEROARYL, 3-(PHENYLPYRROLIDIN-3-YLMETHOXY)HETEROARYL, AND 3-(HETEROARYLPYRROLIDIN-3-YLMETHOXY)HETEROARYL COMPOUNDS” (priority 2009, published 2010).

Amino acid sequences for entries named in this document (tags omitted).
UniProt P31645, whole entry: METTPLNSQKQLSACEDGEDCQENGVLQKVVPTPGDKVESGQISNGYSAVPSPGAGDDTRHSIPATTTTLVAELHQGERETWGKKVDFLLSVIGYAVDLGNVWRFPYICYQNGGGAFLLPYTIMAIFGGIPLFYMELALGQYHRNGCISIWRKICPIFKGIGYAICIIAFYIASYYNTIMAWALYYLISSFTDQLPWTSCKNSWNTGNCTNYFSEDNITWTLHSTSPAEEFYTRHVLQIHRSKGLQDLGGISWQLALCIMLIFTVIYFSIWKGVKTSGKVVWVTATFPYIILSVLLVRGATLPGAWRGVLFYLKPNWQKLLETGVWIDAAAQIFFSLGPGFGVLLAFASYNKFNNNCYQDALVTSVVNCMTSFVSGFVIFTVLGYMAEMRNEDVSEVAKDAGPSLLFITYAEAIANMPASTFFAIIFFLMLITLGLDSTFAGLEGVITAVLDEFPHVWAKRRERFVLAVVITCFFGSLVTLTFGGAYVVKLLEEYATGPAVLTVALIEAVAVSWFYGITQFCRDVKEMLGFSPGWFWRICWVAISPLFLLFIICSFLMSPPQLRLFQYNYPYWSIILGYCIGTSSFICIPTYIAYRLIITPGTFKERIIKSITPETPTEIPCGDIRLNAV
UniProt P23975, whole entry: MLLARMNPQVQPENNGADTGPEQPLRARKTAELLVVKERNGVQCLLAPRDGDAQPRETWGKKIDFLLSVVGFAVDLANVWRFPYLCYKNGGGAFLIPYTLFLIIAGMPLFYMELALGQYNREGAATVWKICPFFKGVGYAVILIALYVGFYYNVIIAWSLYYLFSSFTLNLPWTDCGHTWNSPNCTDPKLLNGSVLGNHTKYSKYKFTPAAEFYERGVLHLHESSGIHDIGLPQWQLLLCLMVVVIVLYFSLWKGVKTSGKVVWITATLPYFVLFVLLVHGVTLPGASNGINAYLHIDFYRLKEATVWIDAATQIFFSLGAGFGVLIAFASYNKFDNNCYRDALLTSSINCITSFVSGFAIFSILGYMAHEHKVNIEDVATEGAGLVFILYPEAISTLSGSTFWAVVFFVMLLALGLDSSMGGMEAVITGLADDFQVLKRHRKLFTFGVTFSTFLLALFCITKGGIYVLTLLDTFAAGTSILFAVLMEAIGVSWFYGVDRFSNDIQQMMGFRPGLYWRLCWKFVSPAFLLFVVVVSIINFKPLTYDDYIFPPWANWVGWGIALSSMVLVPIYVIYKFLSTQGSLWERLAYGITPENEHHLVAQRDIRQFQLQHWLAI

Columns and labels:
SERT = SERT (Homo sapiens, UniProt P31645); assay: hSERT radioligand binding assay (3H-citalopram); details: hSERT membranes (HEK-293), 1.0 nM 3H-citalopram; tested form: TFA
NET = NET (Homo sapiens, UniProt P23975); assay: hNET radioligand binding assay (3H-nisoxetine); details: hNET membranes (HEK-293), 1.0 nM 3H-nisoxetine; tested form: TFA

SERT pKi (SERT)	NET pKi (NET)	Compound
≧5.0	≧7.0	Cc1cccnc1O[C@H](c1ccccc1)[C@@H]1CCNC1
≧7.0	≧7.0	COc1cc(Br)cnc1O[C@@H](c1ccccc1)[C@H]1CCNC1
≧7.0	≧7.0	Fc1cc(Cl)cc(Cl)c1O[C@@H](c1ncco1)[C@H]1CCNC1
≧5.0	≧7.0	Fc1ccc(O[C@@H](c2ncco2)[C@H]2CCNC2)c(F)c1
≧7.0	≧7.0	Clc1cnc(O[C@H](c2ccccc2)[C@@H]2CCNC2)c(Cl)c1
≧7.0	≧7.0	Clc1cncc(C(Oc2cccc3ccccc23)C2CCNC2)c1 (centres unmarked)
≧5.0	≧7.0	Fc1ccc(F)c(O[C@@H](c2ncco2)[C@H]2CCNC2)c1Cl
≧7.0	≧5.0	Clc1ccc(O[C@H](c2ccccc2)[C@@H]2CCNC2)c(Cl)n1
≧7.0	≧5.0	Fc1cc(O[C@H](c2ccccc2)[C@@H]2CCNC2)ccn1
≧7.0	≧5.0	COc1ccc(O[C@H](c2ccccc2)[C@@H]2CCNC2)cn1
≧7.0	≧5.0	Fc1ncccc1O[C@H](c1ccccc1)[C@@H]1CCNC1
≧7.0	≧7.0	COc1ncccc1O[C@H](c1ccccc1)[C@@H]1CCNC1
≧7.0	≧7.0	Clc1ccc(O[C@@H](c2ncco2)[C@H]2CCNC2)c(Cl)c1
≧7.0	≧7.0	FC(F)(F)COc1ncccc1O[C@H](c1ccccc1)[C@@H]1CCNC1
≧5.0	≧5.0	N#Cc1cc(O[C@@H](c2ccccc2)[C@H]2CCNC2)ccn1
≧7.0	≧7.0	Clc1cc(Cl)cc(O[C@@H](c2ncco2)[C@H]2CCNC2)c1

SERT pKi (SERT)	NET pKi (NET)	Compound
≧5.0	≧7.0	N#Cc1c(F)c(F)nc(O[C@@H](c2ccccc2)[C@H]2CCNC2)c1F
≧7.0	≧5.0	Fc1cc(Cl)c(O[C@@H](c2ncco2)[C@H]2CCNC2)c(Cl)c1
≧7.0	≧7.0	Clc1ccc(O[C@@H](c2ccccc2)[C@H]2CCNC2)nc1
≧7.0	≧7.0	Clc1cc(Cl)cc(O[C@@H](c2cnccn2)[C@H]2CCNC2)c1
≧5.0	≧7.0	CC(C)Oc1ncccc1O[C@@H](c1ccccc1)[C@H]1CCNC1
≧7.0	≧7.0	Cc1ccc(O[C@@H](c2ncco2)[C@H]2CCNC2)c(Cl)c1
≧7.0	≧5.0	Fc1cc(F)nc(O[C@@H](c2ccccc2)[C@H]2CCNC2)c1
≧5.0	≧7.0	CC(C)Oc1ncccc1O[C@H](c1ccccc1)[C@@H]1CCNC1
≧7.0	≧7.0	Clc1ccc(O[C@@H](c2ncco2)[C@H]2CCNC2)c(C2CCCCC2)c1
≧7.0	≧5.0	Brc1ccc(O[C@H](c2ccccc2)[C@@H]2CCNC2)nc1
≧7.0	≧5.0	Cc1cc(Cl)cc(Cl)c1O[C@@H](c1ncco1)[C@H]1CCNC1
≧7.0	≧5.0	CN(C)c1c(F)c(F)nc(O[C@@H](c2ccccc2)[C@H]2CCNC2)c1F
≧7.0	≧5.0	Fc1cccnc1O[C@@H](c1ccccc1)[C@H]1CCNC1
≧7.0	≧7.0	Clc1cncc(C(Oc2ccc3ccccc3c2)C2CCNC2)c1 (centres unmarked)
≧7.0	≧7.0	c1ccc([C@@H](Oc2cccnc2OC2CCCC2)[C@@H]2CCNC2)cc1
